Measured values taken from patent US20070088033A1, “Diaryl Substituted Pyridinones” (priority 2002, published 2007).

Protein sequences, listed by entry. Tags and fused reporters are not part of them.
UniProt Q16539, whole entry: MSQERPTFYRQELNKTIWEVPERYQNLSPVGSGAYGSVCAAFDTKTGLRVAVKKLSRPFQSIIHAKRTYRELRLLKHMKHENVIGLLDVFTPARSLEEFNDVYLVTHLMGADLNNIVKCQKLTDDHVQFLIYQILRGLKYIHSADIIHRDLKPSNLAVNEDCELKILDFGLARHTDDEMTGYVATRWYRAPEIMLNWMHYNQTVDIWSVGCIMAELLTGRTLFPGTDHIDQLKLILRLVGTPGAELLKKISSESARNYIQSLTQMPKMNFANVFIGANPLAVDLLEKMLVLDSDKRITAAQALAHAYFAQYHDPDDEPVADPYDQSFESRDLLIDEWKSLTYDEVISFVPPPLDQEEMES

Target: T1, human p38 kinase alpha (Homo sapiens, UniProt Q16539)
T1 construct: The coding region of the human p38 cDNA was obtained by PCR-amplification from RNA isolated from the human monocyte cell line THP.1; GST (N); made in house; host or cells: E. coli DH10B
Assay: p38 kinase in vitro assay
Type: biochemical
Details: n=1 if not reported

[1] = Table III, n = number of times assayed

Row | SMILES | IC50 [1] [nM] | IC50 (Table I, average of n trials) [nM]
1 | Cc1cc(OCc2ccc(F)cc2)c(Br)c(=O)n1Cc1ccncc1 [AAAAA] | 394 | 
2 | Cc1cc(OCc2ccc(F)cc2)c(Br)c(=O)n1Cc1ccccn1 [KK] |  | 997

Continued, values first:

Row | IC50 [1] [nM] | IC50 (Table I, average of n trials) [nM] | SMILES
3 |  | 381 | Cc1cc(OCc2ccc(F)cc2)c(Br)c(=O)n1Cc1cccnc1 [N]
4 |  | 394 | Cc1cc(OCc2ccc(F)cc2)c(Br)c(=O)n1Cc1ccncc1 [O]
5 | 381 |  | Cc1cc(OCc2ccc(F)cc2)c(Br)c(=O)n1Cc1cccnc1 [ZZZZ]
